For one data set, the system named is C57BL/6 mice. Nature of the data set: Anti-nociceptive activity in mice, hot plate front paw withdrawal latency. The data set is classed as in vivo. On the procedure:
A similar dose has been used before by others for nociceptin (NC, SEQ ID NO:1) itself in similar assays with some activity (EC50=200 pmol).
Mice (C57BL/6; n=45) were brought into the experimental room for at least 30 minutes prior to testing. They were then individually placed on an accredited hot plate heated to 53±0.54° C. and timed until any front paw withdrawal, licking or jumping behaviour was recorded (baseline response). Mice were not left on the hot plate for longer than 30 sec. […] Mice were then individually placed on the hot plate again at time points 1, 5, 15, 30, 45 and 60 min post injection. Each test was video monitored.
In a parallel experiment, agonist of SEQ ID NO:8 was co-administered with the helical antagonist of SEQ ID NO:13, where upon the increased paw withdrawal latency produced by agonist of SEQ ID NO:8 alone was abolished. This confirms that the helix constrained peptide of SEQ ID NO:13 is a potent antagonist of SEQ ID NO:8 in vivo.

A further data set addresses T1, ORL-1 receptor (Mus musculus, UniProt P35377).
T1 construct: Neuro-2a cells were a gift from Professor John Mattick's laboratory; endogenous in cells; host or cells: Neuro-2a cells
Nature of the data set: Antagonist functional activity assessed by ERK phosphorylation (pERK) in Neuro-2a cells challenged with 100 nM nociceptin(1-17)-NH2. The data set is classed as cell-based. The settings on record: for Emax: N2a, antagonist pERK, controls PBS (100%) and 100 nM nociceptin1-17-NH2 (100%). On the procedure:
Neuro-2a cells were a gift from Professor John Mattick's laboratory (Institute of Molecular Bioscience, University of Queensland) and were cultured in Gibco® DMEM (Invitrogen, CA, USA) supplemented with 10% FBS (Invitrogen, CA, USA), GIBCO® Pen/Strep (50 units/mL penicillin and 50 μg/mL streptomycin, Invitrogen, CA, USA) and GIBCO® NEAA (1× concentration, Invitrogen, CA, USA). Cells were split 1:10 every 3 days.
All cells were incubated at 37° C. and 5% CO2. When treated with pertussis toxin (PTX, catalogue number P7208, Sigma-Aldrich, NY, USA), cells were incubated with 500 ng/mL for 15 hours before use. Cells treated with MEK inhibitor PD98059 (catalogue number PHZ1164, Invitrogen, CA, USA) were preincubated with 50 μM for 1 hour before use.
Cells were placed in 12-well plates (NUNC™, NY, USA) and allowed to adhere for 24-36 h. […] For agonist assays, cells were challenged with compounds for 35 minutes and incubated at 37° C. (5% CO2).
Membranes were washed 3×10 minutes with TBE (with 0.1% Tween-20) and incubated with a primary antibody. For pERK, rabbit polyclonal ERK1+2 [pTpY185/187] […] Instead, rabbit IgG Phospho-ERK1 (T202/Y204)/ERK2 (T185/Y187) (1:2000, catalogue number AF1018, R&D Systems, MN, USA) was used. […] After multiple washes, the membranes were developed using ECL Detection Solution (Amersham Biosciences) and visualized using photographic film. Radiography was quantified using ImageJ (ImageI 1.36b, NIH).
pERK and total ERK concentrations were determined using a modified protocol for the AlphaScreen Surefire Assay. The modified protocol used half the volume of reagents recommended in the manufacturers' protocol with 2 μL of cell extract in both pERK and total ERK assays. The ratio of pERK to total ERK was determined using equation 1 and normalized to control. For agonist responses, the controls used were PBS (0%) and 1 μM nociceptin1-17-OH (100%). For antagonist responses, the controls used were PBS (100%) and 100 nM nociceptin1-17-NH2 (100%).
Concentration responses were analyzed using non-linear regression (variable slope) (Prism5, GraphPad Software) and data is presented as either EC50 (for agonists) or IC50 (antagonists).
Helix constrained and unconstrained peptides were pre-screened using the pERK assay at a single concentration.

A short description of data set [1]: Circular dichroism spectroscopy (helicity). It counts as physicochemical. Particulars: for θ222/208 (buffer) / fH (buffer): 10 mM phosphate buffer (pH 7.4) at 22° C.; for fH (buffer): fH calculated based on θ at 222 nm; for fH (TFE*): buffer: TFE 50:50, 22° C. How it is done: CD measurements were performed using a Jasco model J-710 spectropolarimeter which was routinely calibrated with (1S)-(+)-10-camphorsulfonic acid. A stock solution of 1-2 mg of peptide was dissolved in 1 mL of water. Separate 500 μL solutions of 50, 100, 200 and 400 μM were then prepared using an appropriate amount of stock solution and making up the different with 10 mM Phosphate Buffer (final pH 7.1). […] Jasco quartz cell over the wavelength range 260-185 nm at 100 nm/min. with a bandwidth of 1.0 nm, response time of 2 s, resolution step width of 1 nm and sensitivity of 20-50 Mdeg. Each spectrum represents the average of 5 scans. Spectra were analyzed using the spectral analysis software and smoothed using ‘adaptive smoothing’ function. Concentrations were determined using the PULCON method. [Wider, Dreier, 2006, J. Am. Chem. Soc. 128:2571-2576]
The incorporation of two lactam bridges induced appreciable helicity, monitored at 222 nm, and was calculated to range between 32-77% helicity. By comparison, the unconstrained nociceptin peptides (SEQ ID NOs:1-5, 9 and 10) had less than 6% α-helicity in water. […] This is due to the fact that residues 1-6 (or 1-5 in 6) are not constrained and would not be expected to be in a helical conformation as they feature amino acids that have little or no propensity to adopt helices in proteins. To determine whether the exocyclic regions were the sole cause of low helicity, SEQ ID NO:15 without the N-terminal message was investigated further. This 12-residue peptide features eight residues (K, R, Q) known to favor α-helicity in proteins, and was 60% helical in phosphate buffer by CD spectral analysis. The serine residue is conserved within the sequence of many of these peptides and is known to be a helix breaker.

The nature of the next data set: circular dichroism. Particulars: 10 mM phosphate; pH 7.4; 22 °C; 50-400 uM. (In general: CD spectra are sensitive to the conformation of chiral molecules.)
[2] abbreviates: antagonist pERK activity vs 100 nM nociceptin(1-17)-NH2, IA = inactive, maximum concentration tested 100 nM, read-out: IC50.
Where [3] appears, read: antagonist pERK activity, printed as log IC50 with negative sign, read-out: log IC50 (converted).
Where [4] appears, read: antagonist pERK activity, 15 minutes pre-incubation, 100 nM nociceptin(1-17)-NH2, read-out: -log IC50 ± SEM (converted).

Molecules are shown by their SMILES. Where two headings read alike, the source gives them in different places.

Broadly, the IC50 is the concentration at which inhibition is half-maximal. In general, Emax refers to the size of the effect at its maximum, as opposed to the concentration needed.

Take `CC(C)C[C@H](NC(=O)[C@H](CCCCN)NC(=O)[C@H](CCCNC(=N)N)NC(=O)[C@H](C)NC(=O)[C@H](CO)NC(=O)[C@H](CCCCN)NC(=O)[C@H](CCCNC(=N)N)NC(=O)[C@H](C)NC(=O)CNC(=O)[C@@H](NC(=O)[C@H](Cc1ccccc1)NC(=O)CNC(=O)CNC(=O)[C@@H](N)Cc1ccccc1)[C@@H](C)O)C(=O)N[C@@H](C)C(=O)N[C@@H](CC(N)=O)C(=O)N[C@@H](CCC(N)=O)C(N)=O` [SEQ ID NO:2, reference compound]: the “rise of thermal nociceptive threshold” value in the data set on C57BL/6 mice (200 pmol per front paw, at 1 min) was roughly 20%. Further, the “duration of anti-nociceptive effect” value with C57BL/6 mice (200 pmol per front paw, hot plate) was less than 5 min. In addition, the ED50 in the data set with C57BL/6 mice (anti-nociceptive effect, intraplantar into front paws, hot plate 53° C., C57BL/6 mice) turned out to be 184 pmol.

Consider `CC(C)C[C@H](NC(=O)[C@H](CCCCN)NC(=O)[C@H](CCCNC(=N)N)NC(=O)[C@H](C)NC(=O)[C@H](CO)NC(=O)[C@H](CCCCN)NC(=O)[C@H](CCCNC(=N)N)NC(=O)[C@H](C)NC(=O)CNC(=O)[C@@H](NC(=O)[C@H](Cc1ccccc1)NC(=O)CNC(=O)CNC(=O)CNCc1ccccc1)[C@@H](C)O)C(=O)N[C@@H](CCCCN)C(=O)N[C@@H](CC(N)=O)C(=O)N[C@@H](CCC(N)=O)C(N)=O` [SEQ ID NO:9], for which the half-inhibitory concentration (IC50) at ORL-1 receptor (setting [2]) is 39 nM; at ORL-1 receptor (setting [3]), 39.8 nM.

For the compound `C[C@H](NC(=O)CNC(=O)[C@@H](NC(=O)[C@H](Cc1ccccc1)NC(=O)CNC(=O)CNC(=O)CNCc1ccccc1)[C@@H](C)O)C(=O)N[C@@H](CCCN=C(N)N)C(=O)N[C@@H](CCCCN)C(=O)N[C@@H](CO)C(=O)N[C@@H](C)C(=O)N[C@@H](CCCN=C(N)N)C(=O)N[C@@H](CCCCN)C(N)=O` [SEQ ID NO:11, reference compound], the IC50 at ORL-1 receptor (setting [3]) was 575 nM.

On to `C[C@@H](O)[C@H](NC(=O)[C@H](Cc1ccccc1)NC(=O)CNC(=O)CNC(=O)CNCc1ccccc1)C(=O)NCC(=O)N[C@H]1CCCCNC(=O)C[C@@H](C(=O)N[C@@H](CCCNC(=N)N)C(=O)N[C@@H](CCCCN)C(=O)N[C@H]2CCCCNC(=O)C[C@@H](C(N)=O)NC(=O)[C@H](CCC(N)=O)NC(=O)[C@H](CC(N)=O)NC(=O)[C@H](CCCCN)NC2=O)NC(=O)[C@H](CO)NC(=O)[C@H](CCCCN)NC(=O)[C@H](CCCNC(=N)N)NC1=O` [SEQ ID NO:12, BzlGGGFTG[KRKSD]RK[KKNQD]-NH2], for which the “improvement in antagonist activity (fold)” value at ORL-1 receptor (constrained relative to unconstrained analogue) was “three-fold”.

At ORL-1 receptor, `CC(C)C[C@H](NC(=O)[C@H](CCCCN)NC(=O)[C@H](CCCNC(=N)N)NC(=O)[C@H](C)NC(=O)[C@H](CO)NC(=O)[C@H](CCCCN)NC(=O)[C@H](CCCNC(=N)N)NC(=O)[C@H](C)NC(=O)CNC(=O)[C@@H](NC(=O)[C@H](Cc1ccccc1)NC(=O)CNC(=O)CNC(=O)CNCc1ccccc1)[C@@H](C)O)C(=O)N[C@@H](CCCCN)C(=O)N[C@@H](CC(N)=O)C(=O)N[C@@H](CCC(N)=O)C(N)=O` [compound 9] came in with an Emax of 103 ± 6%. Further, the IC50 at ORL-1 receptor (setting [2]) was determined as 39 nM. In addition, at ORL-1 receptor (setting [4]), the IC50 is 39.8 nM. In addition, in data set [1], the “θ222/208 (buffer)” value is recorded as 0.05, the “fH (buffer)” value was 0.04 and the “fH (TFE*)” value is given as 0.24.

For `CC(C)C[C@H](NC(=O)[C@H](CCCCN)NC(=O)[C@H](CCCNC(=N)N)NC(=O)[C@H](C)NC(=O)[C@H](CO)NC(=O)[C@H](CCCCN)NC(=O)[C@H](CCCNC(=N)N)NC(=O)[C@H](C)NC(=O)CNC(=O)[C@@H](NC(=O)[C@H](Cc1ccc(F)cc1)NC(=O)CNC(=O)CNC(=O)CNCc1ccccc1)[C@@H](C)O)C(=O)N[C@@H](CCCCN)C(=O)N[C@@H](CC(N)=O)C(=O)N[C@@H](CCC(N)=O)C(N)=O` [compound 10], the Emax at ORL-1 receptor amounted to 101 ± 4%. Further, the IC50 on ORL-1 receptor (setting [4]) was 32.4 nM. In data set [1], the “θ222/208 (buffer)” value amounted to 0.02, the “fH (buffer)” value was 0.03 and the “fH (TFE*)” value amounted to 0.25.

Turning to `C[C@H](NC(=O)CNC(=O)[C@@H](NC(=O)[C@H](Cc1ccccc1)NC(=O)CNC(=O)CNC(=O)CNCc1ccccc1)[C@@H](C)O)C(=O)N[C@@H](CCCNC(=N)N)C(=O)N[C@@H](CCCCN)C(=O)N[C@@H](CO)C(=O)N[C@@H](C)C(=O)N[C@@H](CCCNC(=N)N)C(=O)N[C@@H](CCCCN)C(N)=O` [compound 11], in data set [1], the “θ222/208 (buffer)” value is on record as −0.10, the “fH (buffer)” value is 0.03 and the “fH (TFE*)” value was determined as 0.10. The same compound gave a helicity in “circular dichroism” of 0.03 frac.

Consider `C[C@@H](O)[C@H](NC(=O)[C@H](Cc1ccccc1)NC(=O)CNC(=O)CNC(=O)CNCc1ccccc1)C(=O)NCC(=O)N[C@H]1CCCCNC(=O)C[C@@H](C(=O)N[C@@H](CCCNC(=N)N)C(=O)N[C@@H](CCCCN)C(=O)N[C@H]2CCCCNC(=O)C[C@@H](C(N)=O)NC(=O)[C@H](CCC(N)=O)NC(=O)[C@H](CC(N)=O)NC(=O)[C@H](CCCCN)NC2=O)NC(=O)[C@H](CO)NC(=O)[C@H](CCCCN)NC(=O)[C@H](CCCNC(=N)N)NC1=O` [compound 12], for which the Emax on ORL-1 receptor is 98 ± 6%. For the same compound, the IC50 on ORL-1 receptor (setting [4]) is 12.3 nM. In data set [1], the “θ222/208 (buffer)” value amounted to 0.93 and the “fH (buffer)” value is 0.41.

On ORL-1 receptor, `C[C@@H](O)[C@H](NC(=O)[C@H](Cc1ccc(F)cc1)NC(=O)CNC(=O)CNC(=O)CNCc1ccccc1)C(=O)NCC(=O)N[C@H]1CCCCNC(=O)C[C@@H](C(=O)N[C@@H](CCCNC(=N)N)C(=O)N[C@@H](CCCCN)C(=O)N[C@H]2CCCCNC(=O)C[C@@H](C(N)=O)NC(=O)[C@H](CCC(N)=O)NC(=O)[C@H](CC(N)=O)NC(=O)[C@H](CCCCN)NC2=O)NC(=O)[C@H](CO)NC(=O)[C@H](CCCCN)NC(=O)[C@H](CCCNC(=N)N)NC1=O` [compound 13] had an Emax of 89 ± 5%. The IC50 at ORL-1 receptor (setting [2]) is 7.55 nM. In data set [1], the “θ222/208 (buffer)” value is given as 0.94 and the “fH (buffer)” value is given as 0.39. This compound displayed a helicity in the data set “circular dichroism” of 0.39 frac.

Turning to `CC(C)C[C@@H]1NC(=O)[C@H](CCCCN)NC(=O)[C@H](CCCNC(=N)N)NC(=O)[C@@H](NC(=O)[C@@H]2CC(=O)NCCCC[C@H](NC(=O)[C@@H](NC(=O)[C@H](Cc3ccccc3)NC(=O)CNC(=O)CNC(=O)CNCc3ccccc3)[C@@H](C)O)C(=O)N[C@@H](C)C(=O)N[C@@H](CCCNC(=N)N)C(=O)N[C@@H](CCCCN)C(=O)N2)CCCCNC(=O)C[C@@H](C(N)=O)NC1=O` [compound 14], at ORL-1 receptor (setting [4]), the IC50 was greater than 100 nM. For the same compound, the helicity in “circular dichroism” was 0.77 frac.

The values above are taken from patent US8921306B2, “Nociceptin mimetics” (The University of Queensland, priority 2010, dated 2014).
